Measurements: patent publication US20130096105A1, “ArylSulfonamide Based Matrix Metalloprotease Inhibitors” (NOVARTIS AG, priority 2008, published 2013)
pIC50: −log10 of the molar value.

Amino acid sequences for entries named in this document (tags omitted). Residues count along the entry.
UniProt P08253, 110-660 limits assumed: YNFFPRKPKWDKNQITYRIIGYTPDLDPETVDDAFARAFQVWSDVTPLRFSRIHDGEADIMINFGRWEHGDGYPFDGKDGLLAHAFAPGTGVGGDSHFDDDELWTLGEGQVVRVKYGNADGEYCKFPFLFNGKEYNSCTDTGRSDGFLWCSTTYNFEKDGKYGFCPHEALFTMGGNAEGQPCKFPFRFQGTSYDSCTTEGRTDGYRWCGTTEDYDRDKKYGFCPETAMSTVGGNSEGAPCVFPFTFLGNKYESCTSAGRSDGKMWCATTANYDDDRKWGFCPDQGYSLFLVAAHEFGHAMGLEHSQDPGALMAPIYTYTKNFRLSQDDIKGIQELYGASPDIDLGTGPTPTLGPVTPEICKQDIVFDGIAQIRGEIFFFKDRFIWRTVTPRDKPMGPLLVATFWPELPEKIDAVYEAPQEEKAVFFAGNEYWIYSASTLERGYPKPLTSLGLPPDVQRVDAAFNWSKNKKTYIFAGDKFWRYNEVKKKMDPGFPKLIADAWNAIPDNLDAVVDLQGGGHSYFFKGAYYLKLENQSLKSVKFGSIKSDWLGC

How the values were obtained:
Gelatinase (MMP-2) = Gelatinase (MMP-2) (Homo sapiens, UniProt P08253); assay: Gelatinase (MMP-2) inhibitory activity, fluorogenic peptide substrate cleavage; conditions: read-out: MMP02 IC50
Method: (§1) Gelatinase (MMP-2) inhibitory activities can be determined as follows: Stock solutions of substrate (MCA-Lys-Pro-Leu-Gly-Leu-Dpa-Ala-Arg-NH2) are prepared in DMSO at a concentration of 1.4 mM. Stock solutions of inhibitors (0.03 μM-3 mM) are also prepared in DMSO. The inhibitors are diluted into the assay solutions, and the controls use an equal volume of DMSO so that the final DMSO concentration from the inhibitor and substrate dilutions in all assays is 1.0%. Assays are performed in an assay buffer (100 mM sodium chloride, 10 μM ZnCl. Sub 2, 10 mM CaCl2, 100 mM Tris-Cl pH7.5, 0.05% Brij-35), containing 1.0% DMSO from the substrate and inhibitor additions. The substrate concentration used in the assays is 5 μM. The assays are carried out at 20-25° C. The fluorescence changes, as a result of substrate cleavage, are monitored using an excitation wavelength of 325 nm and an emission wavelength of 405 nm. The reaction mixtures are added in duplicate into appropriate wells of a 384-well assay plate. The reaction mixtures are preincubated with the inhibitors for 60 minutes The reactions are started by the addition of MMP substrate, and the fluorescence intensity changes are measured after 60 minutes The apparent enzyme activity in the presence of an inhibitor is then compared with that in the absence of any inhibitor to determine the inhibition effect of the inhibitor. […]

Collagenase-3 (MMP-13) = Collagenase-3 (MMP-13) (Homo sapiens, UniProt P45452); assay: Collagenase-3 (MMP-13) inhibitory activity, fluorogenic peptide substrate cleavage; conditions: read-out: MMP13 IC50
Method: as §1, with “The reaction mixtures are added in duplicate into appropriate wells of a 384-well assay plate.” left out
Collagenase-3 (MMP-13) inhibitory activity is determined as described above. […]

SMILES | pIC50 (Gelatinase (MMP-2)) | pIC50 (Collagenase-3 (MMP-13))
NS(=O)(=O)c1cc(C(=O)c2ccc(OCCO)cc2)ccc1Cl [Example 16] | 5.23 | 5.31
NS(=O)(=O)c1cc(C(=O)c2ccc(OCCO)cc2)ccc1Cl [Example 57] | < 4.52 | 4.67
